In ChEMBL document CHEMBL3886179, “Substituted 6, 7-dialkoxy-3-isoquinoline derivatives as inhibitors of phosphodiesterase 10 (PDE 10A)” (2015) one finds IC50 data, which are given here for 1 compound.

Protein sequences, listed by entry. Tags and fused reporters are not part of them. Lines headed by an entry give the natural chain unless they say otherwise; changes in a name come on top.
UniProt Q9Y233: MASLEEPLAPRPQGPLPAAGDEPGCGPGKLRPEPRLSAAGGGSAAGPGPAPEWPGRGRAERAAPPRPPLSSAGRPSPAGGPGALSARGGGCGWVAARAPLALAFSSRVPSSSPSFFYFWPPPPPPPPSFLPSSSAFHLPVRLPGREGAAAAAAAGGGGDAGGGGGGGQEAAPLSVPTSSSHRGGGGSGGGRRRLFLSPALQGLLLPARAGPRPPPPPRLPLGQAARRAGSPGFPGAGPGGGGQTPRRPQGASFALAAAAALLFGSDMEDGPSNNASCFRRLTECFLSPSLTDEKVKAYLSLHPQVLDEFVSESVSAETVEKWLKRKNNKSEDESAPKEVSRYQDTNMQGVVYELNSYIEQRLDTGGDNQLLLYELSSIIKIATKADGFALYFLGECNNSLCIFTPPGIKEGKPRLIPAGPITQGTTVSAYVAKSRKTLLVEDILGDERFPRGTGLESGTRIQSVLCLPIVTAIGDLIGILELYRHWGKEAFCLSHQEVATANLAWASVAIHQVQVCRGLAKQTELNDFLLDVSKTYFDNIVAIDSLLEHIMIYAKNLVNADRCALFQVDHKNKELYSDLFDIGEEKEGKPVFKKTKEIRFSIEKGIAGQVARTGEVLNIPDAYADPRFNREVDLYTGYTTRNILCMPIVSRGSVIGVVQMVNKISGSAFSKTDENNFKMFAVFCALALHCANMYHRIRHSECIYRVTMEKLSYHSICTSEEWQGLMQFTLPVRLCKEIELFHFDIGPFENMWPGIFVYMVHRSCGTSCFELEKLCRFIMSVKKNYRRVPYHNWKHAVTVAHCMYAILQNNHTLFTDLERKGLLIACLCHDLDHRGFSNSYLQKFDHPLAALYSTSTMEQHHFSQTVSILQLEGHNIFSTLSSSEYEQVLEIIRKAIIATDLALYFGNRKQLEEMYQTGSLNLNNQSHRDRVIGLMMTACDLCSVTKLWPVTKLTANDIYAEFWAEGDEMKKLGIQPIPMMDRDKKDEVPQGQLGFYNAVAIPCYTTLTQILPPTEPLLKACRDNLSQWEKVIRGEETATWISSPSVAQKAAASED

A word on the IC50: it is the concentration that gives 50% inhibition.

This test deals with cAMP and cAMP-inhibited cGMP 3',5'-cyclic phosphodiesterase 10A (Homo sapiens, UniProt Q9Y233). Put plainly: Diaxonhit Phosphodiesterase Assay: The phosphodiesterase assay was developed using the LANCE cAMP kit (PerkinElmer). The assay buffer contained HBSS with 5 mM HEPES, 0.1% BSA, and 1.5 mM MgCl2, pH 7.4. PDE10A (BPS Bioscience) was used at 200 pg/well (with a specific activity of 3200 pmole/min/ug with assay conditions: 10 mM Tris-HCl, pH 7.4, 10 mM MgCl2, 1 mM MnCl2, 200 uM cAMP, 2.5 kU 5' nucleotidase, 37° C., 20 min) and PDE4D3 (BPS Bioscience) was used at 100 pg/well (with a specific activity of 32713 pmole/min/ug with assay conditions: 10 mM Tris-HCl, pH 7.4, 10 mM MgCl2, 1 mM MnCl2, 200 uM cAMP, 2.5 kU 5' nucleotidase, 37° C., 20 min). The Biotin-cAMP tracer, supplied in 10 mmol/L Tris-HCl buffered (pH 8.0) salt solution with 1 mmol/L ethylenediaminetetraacetic acid (EDTA), 0.1% bovine serum albumin (BSA), and 0.05% sodium azide, is used at a dilution of 1/375. The assay detection mixture contained the LANCE Eu-W8044 labeled streptavidin 1/2250 (supplied in 50 mmol/L Tris-HCl buffer). For orientation: Time-resolved FRET reads energy transfer from a long-lived donor to a nearby acceptor.

Structures are written as SMILES.

Turning to `COc1cc2c(Cc3cnc4ccccc4c3)cnc(CC(C)C)c2cc1OC`, the concentration for half-maximal inhibition (IC50) was 20 nM.
